Measured values as given in patent publication US20180140703A1, “TUMOR RADIOSENSITIZATION WITH ANTIBODY CONJUGATES” (The Regents of the University California, priority 2016, published 2018).

Assays:
[1] = system: OE19 cells; experiment: Cell cycle (propidium iodide, flow cytometry); format: cell-based, human; conditions: treated overnight
Protocol: Cells were treated with RNAse, stained with propidium iodide (PI) and analysed by FACS using FloJo software.

[2] = system: CAL-27 xenografts; experiment: Tumour xenograft drug measurement (LC-MS/MS); format: in vivo, mice; conditions: 2 nmol C-MMAE or T-MMAE i.v.
Protocol: Tumours were excised, weighed and homogenized in 10 volumes of PBS with a point sonicator (Fisher Scientific) using an amplitude range of 5-15% for a maximum of 20 s while on ice. The homogenates were centrifuged (14 g, 10 min), then the supernatants were collected and diluted two-fold by addition of 2% acetic acid in acetonitrile, then centrifuged again (14 g, 10 min). MMAE concentration was determined by LC-MS/MS with Luna-2 C18 column and Agilent Trap XCT mass spectrometer and extracted fragment ion currents at 686.4 and 506.4 were integrated and combined to improve sensitivity.

[3] = system: low EGFR LN-229 tumours; experiment: In vivo tumour xenograft optical imaging (Cy5); design: species or system mice; conditions: 0.5 nmol Cy5-labelled C-MMAE i.v.
Protocol: (§1) All animal work was done in compliance with the University of California San Diego Institutional Animal Use and Care Committee. Six-to-eight-week-old female athymic nu/nu mice purchased from the University of California San Diego Animal Care Program breeding colony were injected subcutaneously into the bilateral upper thighs with 5×106 CAL-27, SQ9-G, SCC-35, SCC-61, A549, HCT-116, OE19 or LN229 tumour cells in a 1:1 Matrigel (BD) and PBS solution. After tumours grew to >100 mm3 they were injected with 0.5 nmol of Cy-labelled cetuximab-MMAE, trastuzumab-MMAE (.'4 and 3.9 mg kg^−1, respectively) as described above. For imaging, mice were anaesthetized (1:1 mixture of 100 mg ml—1 of ketamine and 5 mg ml—1 of midazolam). Animals were imaged using a Maestro Small Animal Imager (CRI) with excitation filter of 620/22 and 645 nm long-pass emission filter with dichroic filter tuned to 670 nm. Imaging was done both with skin on and after skin removal to decrease autofluorescence and scattering. […] At various time points after injection, the tail was pricked and a small volume (5-10 μl) of blood was collected in a heparinized hematocrit tube. Fluorescent images were taken using the Maestro, with the filters mentioned above, and the integrated fluorescent intensity was measured using Image J.

[4] = system: EGFR expressing tumours HNC (CAL-27, SCC-61, SCC-35 and SQ-9G), NSCLC (A549) and colorectal (HCT-116); experiment: In vivo tumour xenograft optical imaging (Cy5); design: species or system mice
Protocol: as §1

[5] = system: EGFR+ tumour xenografts; experiment: Immunohistochemistry of tumour xenografts (pS10 histone H3); format: in vivo, mice; conditions: harvested 24 h after injection; compared with cetuximab
Protocol: (§2) Tissue sections were cut from blocks of formalin-fixed paraffin embedded xenografts. Four micron thick tissue sections were stained with antibodies to phosphohistone H3 (pH3, Abcam, catalogue number ab32107) and cleaved caspase-3 (C1C3, Cell Signaling Technology, catalogue number 9661) and used at dilutions of 1:300 and 1:900, respectively. Slides were stained on a Ventana Discovery Ultra (Ventana Medical Systems, Tucson, Ariz., USA). Antigen retrieval was performed using CC1 for 24-40 min at 95° C. The primary antibodies were incubated on the sections for 1 h at 37° C. Primary antibodies were visualized used DAB as a chromagen using the UltraMap system (Ventana Medical systems) followed by hematoxylin as a counterstain. Slides were rinsed, dehydrated through alcohol and xylene and coverslipped.
(§3) Immununostained slides were scanned using an Axio Scan.Z1 (Zeiss; Oberkochen, Germany). […] Whole-slide images were imported into Definiens Software for quantitative analysis (Definiens; Munich, Germany). […] For analysis of pH3 (a nuclear stain), the total number of nuclei and the total number of nuclei showing DAB staining (pH3 positive cells) were recorded within each ROI. The percent of positive nuclei was then calculated for each sample. For analysis of C1C3 (a cytoplasmic stain), mean DAB chromagen intensity was measured and calculated within the ROI for each sample.

[6] = system: CALU3 (EGFR+, HER2+) cells; experiment: Neutral comet assay; format: cell-based, human; conditions: 6 Gy, 2 nM overnight, vs vehicle or 20 nM antibody
Protocol: (§4) Cells were collected 15 min post IR, suspended in agarose gel and lysed per assay directions (Trevigen). Samples underwent electrophoresis under neutral conditions and were then stained with Sybr Green. Comet tails were counted in multiple fields (>60 cells per sample) and analysed using CometScore (TriTek Corp). Comet tail length was normalized to vehicle-treated, non-irradiated cells.

[7] = system: CAL-27 (EGRF+) and OE19 (HER2+) cells; experiment: Alamar Blue cell viability assay; format: cell-based, human; conditions: dose range, 72-96 h
[8] = system: EGFR expressing CAL-27, A549 and CALU3 cells; experiment: Cy5 fluorescence imaging of Cy5-labelled ADC (confocal), EGFR panel; format: cell-based, human; conditions: 2 nM Cy5-labelled ADC, 2 h
Protocol: (§5) Cells were exposed to Cy5-labelled cetuximab-MMAE or trastuzumab-MMAE for 30 min in media with 1% serum. Cells were then washed with PBS and incubated in media with 10% serum. At indicated times, cells were fixed in 4% paraformaldehyde and then stained with DAPI. Cells were imaged using a Nikon MR confocal microscope.

[9] = system: OE19 tumour xenografts; experiment: Immunohistochemistry of tumour xenografts (pHistone H3, cleaved caspase 3); format: in vivo, mice; conditions: after Cy5-labelled C-MMAE or T-MMAE i.v.
Protocol: as §2, §3

[10] = system: CAL-27 (EGFR+) cells; experiment: Cy5 fluorescence imaging of Cy5-labelled ADC (confocal); format: cell-based, human; conditions: 2 nM Cy5-labelled C-MMAE; by 30 min
Protocol: as §5

[11] = system: OE19 tumour xenografts; experiment: In vivo tumour xenograft optical imaging (Cy5); design: species or system mice
Protocol: as §1

[12] = system: HER2 expressing cell lines CALU3, OE19 and BT474; experiment: Cy5 fluorescence imaging of Cy5-labelled ADC (confocal), HER2 panel; format: cell-based, human; conditions: 2 nM Cy5-labelled ADC, 2 h
Protocol: as §5

[13] = system: OE19 cells (HER2+); experiment: Neutral comet assay; format: cell-based, human; conditions: 6 Gy, 2 nM overnight
Protocol: as §4

[14] = system: OE19 (HER2+) tumour xenografts; experiment: In vivo tumour xenograft experiments (tumour growth); design: species or system mice; conditions: for Tumour doubling time in days (mean, 95% CI): OE19
From the text: (§6) Mice were assigned to indicated groups in ‘Results’.

[15] = system: CAL-27 cells; experiment: ADC cell binding (cell surface, flow cytometry); design: species or system human; conditions: on ice, increasing concentrations, Cy5 signal
[16] = system: HER2 expressing cell lines, OE19, CALU3, and BT474; experiment: ADC cell binding (cell surface, flow cytometry); design: species or system human; conditions: on ice, increasing concentrations, Cy5 signal
Protocol: Cells were collected and resuspended in cold PBS with 5% BSA. Cy5-labelled cetuximab-MMAE or trastuzumab-MMAE was added to the cells at indicated concentrations for 15 min on ice. Cells were washed, resuspended in PBS with 5% BSA and 0.5 ml propidium iodide, and analysed by flow cytometry.

[17] = Blood clearance (loss of Cy5 fluorescence in the blood); format: in vivo, mice; conditions: Cy5-labelled T-MMAE i.v.
Protocol: as §1

[18] = system: HER2+ cell lines; experiment: Neutral comet assay; format: cell-based, human; conditions: HER2+ cells; 20 nM overnight, 2 Gy
Protocol: as §4

[19] = system: HER2− cell lines; experiment: Neutral comet assay; format: cell-based, human; conditions: HER2− cells; 20 nM overnight, 2 Gy
Protocol: as §4

[20] = system: HCT116 (HER2−) tumour xenografts; experiment: In vivo tumour xenograft experiments (tumour growth); design: species or system mice
From the text: as §6

[21] = system: NCI N87 (HER2+) tumour xenografts; experiment: as above; design: species or system mice
From the text: as §6

[22] = 0.25 nmol i.v. day 0 + IR 2.5 Gy days 1, 2 and 3

C-MMAE: monomethyl auristatin E conjugated to cetuximab via maleimidocaproyl-valine-citrulline linker, labelled with Cy5
cell cycle profile (G2/M) [1]: did not influence the cell cycle profile
tumour MMAE concentrations [2]: confirmed restriction of released drug to EGFR+cells by cetuximab conjugation as opposed to trastuzumab conjugation
Cy5 signal accumulation in tumours [3]: did not
time of Cy5 signal accumulation in tumour xenografts after injection ([4]; 0.5 nmol Cy5-labelled C-MMAE i.v.): up to 72 h
influence of irradiation on ADC accumulation in tumours ([4]; 3 Gy 24 h after injection, imaged 24 h post IR): did not appreciably influence C-MMAE accumulation in tumours
accumulation in G2/M by pS10 Histone H3 staining [5]: increased accumulation in G2/M
comet tail length after irradiation [6]: increased comet tail length to a similar degree
cytotoxicity (cell viability) [7]: restricted MMAE cytotoxicity to EGFR or HER2 expressing cells, respectively, and were much more potent than antibodies alone
binding by Cy5 fluorescence [8]: bound to EGFR expressing CAL-27, A549 and CALU3 cells with decreasing affinity
pS10 of Histone H3 (G2/M marker) in tumours [9]: blocked MMAE anti-tubulin activity
Cy5 fluorescence localization [10]: localized to the cell surface and also was internalized

T-MMAE: monomethyl auristatin E conjugated to trastuzumab via maleimidocaproyl-valine-citrulline linker, labelled with Cy5
tumour MMAE concentrations [2]: confirmed restriction of released drug to EGFR+cells by cetuximab conjugation as opposed to trastuzumab conjugation
Cy5 signal accumulation within tumours ([11]; 0.5 nmol Cy5-labelled ADC i.v., imaged 48 h later): greater Cy5 signal accumulation within tumours compared with C-MMAE
Cy5 fluorescence localization in sectioned tumour xenografts ([11]; 0.5 nmol Cy5-labelled T-MMAE i.v.): localized to areas of tumour cells and not stroma
binding by Cy5 fluorescence [12]: high affinity
comet tail length after irradiation [6]: increased comet tail length to a similar degree
comet tail length after irradiation [13]: further increased comet tail length
tumour growth ([14]; single dose of 1 nmol, compared with control or trastuzumab by day 14): equally efficacious in slowing tumour growth
pS10 of Histone H3 (G2/M marker) in tumours [9]: increased pS10 of Histone H3 in tumours
cell surface binding [15]: not
cell surface binding [16]: dose-dependent binding
pharmacokinetics (loss of Cy5 fluorescence in the blood) [17]: comparable to that of similar Cy5-labelled antibody alone

trastuzumab: recombinant humanized anti-HER2 monoclonal antibody
radiosensitization (IR induced DNA double-strand breaks) [18]: did not result in any significant radiosensitization
radiosensitization (IR induced DNA double-strand breaks) [19]: did not result in any significant radiosensitization
Tumour doubling time in days (mean, 95% CI) [14, 22]: 14 (10-24) days
Tumour doubling time in days (mean, 95% CI) ([14]; 0.25 nmol i.v. day 0, no IR): 6 (4-8) days
Tumour doubling time in days (mean, 95% CI) [20, 22]: 7 (5-12) days
Tumour doubling time in days (mean, 95% CI) ([20]; 0.25 nmol i.v. day 0, no IR): 4 (2-8) days
Tumour doubling time in days (mean, 95% CI) [21, 22]: 19 (16-22) days
Tumour doubling time in days (mean, 95% CI) ([21]; 0.25 nmol i.v. day 0, no IR): 14 (10-21) days
